Molecular target: T1, PBP1a/1b from Bacillus subtilis (Bacillus subtilis, UniProt P39793)
T1 construct: The recombinant proteins of the full-length genes from 16 bacteria; (His)6 (N); made in house; host or cells: E. coli BL21(DE3)
T1 sequence (P39793 1-914): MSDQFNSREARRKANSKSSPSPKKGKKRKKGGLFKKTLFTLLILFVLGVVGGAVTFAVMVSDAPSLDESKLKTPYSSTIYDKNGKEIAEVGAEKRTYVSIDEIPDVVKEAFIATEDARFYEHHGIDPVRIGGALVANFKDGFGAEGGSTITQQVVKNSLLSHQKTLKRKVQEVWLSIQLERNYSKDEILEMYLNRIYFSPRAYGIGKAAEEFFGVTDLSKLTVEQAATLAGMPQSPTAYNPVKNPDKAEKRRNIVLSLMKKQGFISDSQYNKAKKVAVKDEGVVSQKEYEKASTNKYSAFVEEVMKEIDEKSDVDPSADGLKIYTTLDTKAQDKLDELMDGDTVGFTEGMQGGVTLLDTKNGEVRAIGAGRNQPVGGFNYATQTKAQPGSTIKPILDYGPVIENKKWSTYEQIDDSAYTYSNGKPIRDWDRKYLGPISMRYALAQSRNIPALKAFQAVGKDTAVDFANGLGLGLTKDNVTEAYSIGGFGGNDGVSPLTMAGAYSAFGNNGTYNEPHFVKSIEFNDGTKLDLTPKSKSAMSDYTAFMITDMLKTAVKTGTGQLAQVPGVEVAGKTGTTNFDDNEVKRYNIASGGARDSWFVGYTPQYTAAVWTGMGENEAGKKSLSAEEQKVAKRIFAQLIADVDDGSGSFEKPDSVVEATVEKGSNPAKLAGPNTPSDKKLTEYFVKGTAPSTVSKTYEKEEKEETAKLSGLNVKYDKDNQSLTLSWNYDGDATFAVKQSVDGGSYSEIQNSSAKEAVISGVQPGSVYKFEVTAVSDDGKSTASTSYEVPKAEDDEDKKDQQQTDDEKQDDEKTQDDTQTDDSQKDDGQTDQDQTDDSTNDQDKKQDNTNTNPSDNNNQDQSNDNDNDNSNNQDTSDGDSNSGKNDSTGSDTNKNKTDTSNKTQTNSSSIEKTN
Assay: SPR moenomycin binding to immobilized full-length PBP
Conditions: read-out: SPR_KD, steady-state affinity, average values

## Moenomycin A [Compound 1]
  Kd: 1690 nM

— patent publication US8916540B2, “Antibiotic compositions and related screening methods” (Academia Sinica, priority 2008, dated 2014)
